Results reported in PubChem BioAssay AID2718 (Broad Institute, 2010).
The list shows a part of the results, in another mix than the full data. Calls of active or inactive are those of the source. No stated cut-off is given here; in the data, active means inhibition above about 26% (passing the limit was not always enough); inconclusive means no clear call, values can overlap the other calls.

Chains of the proteins cited; added tags and fusions are not shown.
UniProt O15379, whole entry: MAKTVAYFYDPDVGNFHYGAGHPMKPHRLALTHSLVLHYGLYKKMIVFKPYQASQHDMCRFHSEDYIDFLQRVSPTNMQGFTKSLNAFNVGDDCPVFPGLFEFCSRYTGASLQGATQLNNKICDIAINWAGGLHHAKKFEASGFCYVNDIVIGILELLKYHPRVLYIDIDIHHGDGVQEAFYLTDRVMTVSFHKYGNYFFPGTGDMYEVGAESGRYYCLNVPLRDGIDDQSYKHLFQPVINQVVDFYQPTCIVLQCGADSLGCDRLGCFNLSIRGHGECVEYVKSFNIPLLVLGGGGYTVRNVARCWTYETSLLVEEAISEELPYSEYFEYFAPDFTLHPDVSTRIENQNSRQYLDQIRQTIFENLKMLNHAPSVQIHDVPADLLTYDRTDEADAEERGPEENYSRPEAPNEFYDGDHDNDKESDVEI

Target: Histone deacetylase 3 (Homo sapiens) (UniProt O15379)
Assay: HDAC3 deacetylase inhibitors, primary screen, biochemical, fluorescence, cell-free homogeneous (AID 2718)
Details: recombinant HDAC3, fluorogenic peptide/trypsin coupled, at 8.3 µM, stronger effect = higher value

Structure (SMILES)	inhibition
O=[N+]([O-])c1cc([N+](=O)[O-])c(-n2nnc3ccccc32)c([N+](=O)[O-])c1	inactive: 4.42%
Cc1nc2ccc3ccccc3c2s1.O=[N+]([O-])c1cc([N+](=O)[O-])c(O)c([N+](=O)[O-])c1	inactive: 2.04%
O=[N+]([O-])c1cc([N+](=O)[O-])c(-c2cnn(-c3ccccc3)c2)c([N+](=O)[O-])c1	inactive: -3.62%
CC1=C2N=C(C=C3N=C(C(C)=C4[N-][C@@](C)([C@@H]5N=C1[C@](C)(CCC(=O)NC[C@@H](C)OP(=O)([O-])O[C@H]1[C@@H](O)[C@@H](n6cnc7cc(C)c(C)cc76)O[C@@H]1CO)[C@H]5CC(N)=O)[C@@](C)(CC(N)=O)[C@@H]4CCC(N)=O)[C@@](C)(CC(N)=O)[C@@H]3CCC(N)=O)C(C)(C)[C@@H]2CCC(N)=O.[C-]#N.[Co+3]	inactive: 4.64%
O=[N+]([O-])c1cc([N+](=O)[O-])c(Nc2nnnn2CCO)c([N+](=O)[O-])c1	inactive: 1.93%
CCCOc1ccc(NP(C)(=O)Oc2ccc(Cl)cc2)cc1 (stereo unspecified)	inactive: 1.19%
CP(=O)(Nc1ccc(SC(F)(F)F)cc1)Oc1ccccc1 (stereo unspecified)	inactive: 5.22%
COc1ccccc1OP(C)(=O)Nc1c(C)cccc1C (stereo unspecified)	inactive: -3.39%
CN1CCCCC1COC(=O)C1(O)c2ccccc2CCc2ccccc21 (stereo unspecified)	inactive: -0.214%
O=C(O)c1cccc(Nc2c([N+](=O)[O-])cc([N+](=O)[O-])cc2[N+](=O)[O-])c1	inactive: 14.5%
CC1=NCCc2c1[nH]c1ccccc21.O=[N+]([O-])c1cc([N+](=O)[O-])c(O)c([N+](=O)[O-])c1	inactive: 5.92%
CCOC(=O)c1ccc(NP(C)(=O)Oc2cc(C)cc(C)c2)cc1 (stereo unspecified)	inactive: 10.3%
Cc1cc(C)cc(OP(C)(=O)Nc2ccc(C)cc2C)c1 (stereo unspecified)	inactive: 4.96%
COc1ccccc1OP(C)(=O)Nc1cccc(Br)c1 (stereo unspecified)	inactive: -8.52%
Cc1ccc(C)c(NP(C)(=O)Oc2ccccc2)c1 (stereo unspecified)	inactive: -2.79%
Cc1cc(C)cc(OP(C)(=O)Nc2ccccn2)c1 (stereo unspecified)	inactive: 0.172%
CP(=O)(Nc1cccc(Br)c1)Oc1ccccc1 (stereo unspecified)	inactive: 3.98%
CCN(CC)CCCOC(=O)C(O)(c1ccccc1)c1ccccc1	inactive: 4.33%
O=[N+]([O-])c1ccc2c(c1)C=Nc1ccccc1O2	inactive: -1.68%
CC(C)(C)c1ccc(OP(C)(=O)Nc2ccc(SC(F)(F)F)cc2)cc1 (stereo unspecified)	active: 32.6%
O=[N+]([O-])c1cc([N+](=O)[O-])c(Nc2cccnc2)c([N+](=O)[O-])c1	inactive: 9.78%

Structure (SMILES)	inhibition
Cc1cc(C)cc(OP(C)(N)=O)c1 (stereo unspecified)	inactive: -10.2%
COc1ccc(OP(C)(=O)Nc2cccc(F)c2)cc1 (stereo unspecified)	inactive: -4.01%
COc1ccccc1OP(C)(=O)Nc1cc(Cl)ccc1C (stereo unspecified)	inactive: 5.02%
Cc1ccc(NP(C)(=O)Oc2ccccc2)c(C)c1 (stereo unspecified)	inactive: -0.935%
COc1ccccc1OP(C)(=O)Nc1ccc(C)cc1 (stereo unspecified)	inactive: -7.55%
CCOC(=O)c1ccc(NP(C)(=O)Oc2ccccc2)cc1 (stereo unspecified)	inactive: -0.937%
CP(=O)(Nc1ccccc1Br)Oc1ccccc1 (stereo unspecified)	inactive: 4.44%
COc1ccccc1OP(C)(=O)Nc1ccccc1 (stereo unspecified)	inactive: -2.17%
CP(=S)(Nn1cnnc1)Oc1ccccc1 (stereo unspecified)	inactive: 3.33%
Cc1cc(C)cc(OP(C)(=O)Nc2ccc(SC(F)(F)F)cc2)c1 (stereo unspecified)	inactive: 3.28%
CP(=O)(NC(=O)Nc1ccccc1)Oc1ccccc1 (stereo unspecified)	inactive: -2.66%
CCc1ccc(OP(C)(=O)N2CCN(c3ccc([N+](=O)[O-])cc3)CC2)cc1 (stereo unspecified)	inactive: 4.65%
CP(=O)(Oc1ccccc1)OC(c1ccccc1)C(F)(F)F (stereo unspecified)	inactive: 3.49%
Cc1cccc(C)c1OP(C)(=O)Nc1ccc(SC(F)(F)F)cc1 (stereo unspecified)	inactive: 4.12%
CP(=O)(Nc1ccccn1)Oc1ccc(Cl)cc1 (stereo unspecified)	inactive: 4.37%
CCOC(=O)c1ccc(NP(C)(=O)Oc2ccc(OC)cc2)cc1 (stereo unspecified)	inactive: 5.53%
O=[N+]([O-])c1cc([N+](=O)[O-])c(O)c([N+](=O)[O-])c1.c1ccc(Oc2ccncc2)cc1	inactive: 6.94%
CCOP(C)(=S)SCC(=O)NC(C)C(=O)O (stereo unspecified)	inactive: -7.84%
O=C(OCCCN1CCCC1)C(O)(c1ccccc1)C1CCCCC1 (stereo unspecified)	inactive: -2.47%
COc1ccccc1OP(C)(=O)Nc1c(C)n(C)n(-c2ccccc2)c1=O (stereo unspecified)	inactive: 0.611%
